# Binding of CDR-mutated scFvs to a peptide of the spike HR2 region

Data: MIT Lincoln Laboratory AlphaSeq set, Engelhart et al. 2022, doi:10.1038/s41597-022-01779-4, as distributed in FLAb.

Binding partner: SARS-CoV-2 spike HR2 peptide, sequence PDVDLGDISGINAS.

The variants keep the light chain, the linker and the frameworks of Ab-14 (scFv order VH, a 15-residue (Gly4Ser)3 linker, VL).
VH: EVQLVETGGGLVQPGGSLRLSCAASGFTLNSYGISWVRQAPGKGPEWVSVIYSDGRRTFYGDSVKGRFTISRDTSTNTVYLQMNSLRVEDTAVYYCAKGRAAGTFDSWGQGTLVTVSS
VL: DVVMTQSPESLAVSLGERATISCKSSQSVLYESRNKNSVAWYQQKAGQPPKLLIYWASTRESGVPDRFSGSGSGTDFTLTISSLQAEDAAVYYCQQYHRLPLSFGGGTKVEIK

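The parent was found by panning a naive human phage display library on the peptide. In library AAYL49, one, two or three CDR residues were substituted; doubles and triples were drawn at random. In AlphaSeq, yeast of one mating type display the scFv and yeast of the other type display the target. Mating (16 h, 30 °C) was followed by selection of diploids and sequencing of their barcodes. Each replicate has its own calibration line, from reference interactions of the BCL2 family. Mating was done three times.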

Substitutions are numbered in sequence along the VH above, starting at 1 (not Kabat).
This list gathers variants with a substitution at F105 (VH, numbered from residue 1).
Each Kd is an estimate from the mating assay, the geometric mean of the replicates in which the pair was seen; lower is stronger.
"no signal" marks a missing value. The strain was present, yet no cells mated with the target were sequenced in any replicate, which points to weak or no binding.
As a blank, each scFv also met three strains without target: over library AAYL49, 15% of these pairings were detected, typically at 11 µM and seldom below 680 nM.

Variant F59M+G103T+F105H showed 26 nM (3 of 3 replicates).
Variant R57L+V64W+F105N showed no signal (0 of 3 replicates).
Variant G33Q+G55P+F105E showed 45 µM (2 of 3 replicates).
Variant S31D+F105Q+D106S showed no signal (0 of 3 replicates).
Variant S63H+F105N showed no signal (0 of 3 replicates).
Variant V50G+R57C+F105S showed no signal (0 of 3 replicates).
Variant I51Y+Y60W+F105V showed 120 µM (2 of 3 replicates).
Variant T58E+F59I+F105H showed 53 µM (2 of 3 replicates).
Variant Y32P+G103P+F105P showed no signal (0 of 3 replicates).
Variant F105G+D106H showed no signal (0 of 3 replicates).
Variant G61A+F105Q showed no signal (0 of 3 replicates).
Variant Y32N+I34P+F105L showed no signal (0 of 3 replicates).
Variant Y60W+G61K+F105V showed 1.9 µM (1 of 3 replicates).
Variant F27M+N30F+F105T showed no signal (0 of 3 replicates).
Variant N30T+Y60M+F105I showed 3.7 µM (3 of 3 replicates).
Variant F27D+R57A+F105V showed 3.0 µM (1 of 3 replicates).
Variant G61T+S63T+F105P showed 70 µM (2 of 3 replicates).
Variant G33P+D62V+F105N showed no signal (0 of 3 replicates).
Variant G33P+G99K+F105L showed 1.3 µM (1 of 3 replicates).
Variant L29Q+A101N+F105R showed 250 µM (1 of 3 replicates).
Variant G61Y+F105I showed no signal (0 of 3 replicates).
Variant Y52V+R56N+F105C showed no signal (0 of 3 replicates).
Variant S35E+R56Y+F105D showed no signal (0 of 3 replicates).
Variant G26I+I51W+F105G showed no signal (0 of 3 replicates).
Variant S31K+R56E+F105V showed 100 nM (3 of 3 replicates).
Variant G33Y+S63D+F105K showed no signal (0 of 3 replicates).
Variant F105H showed 100 nM (3 of 3 replicates).
Variant F27I+K65T+F105L showed no signal (0 of 3 replicates).
Variant G26W+R100Y+F105Q showed no signal (0 of 3 replicates).
Variant V50E+S63N+F105M showed no signal (0 of 3 replicates).
Variant S63N+V64C+F105K showed 1.6 µM (3 of 3 replicates).
Variant G55R+T58R+F105H showed no signal (0 of 3 replicates).
Variant N30K+T58W+F105Q showed 2.3 µM (3 of 3 replicates).
Variant F59T+A102S+F105N showed 73 µM (1 of 3 replicates).
Variant G33N+F105K showed 1.3 mM (1 of 3 replicates).
Variant I51D+Y60D+F105G showed 27 µM (2 of 3 replicates).
Variant G55E+F105H showed 1.1 mM (1 of 3 replicates).
Variant S53A+G61F+F105L showed 35 nM (3 of 3 replicates).
Variant R57T+F105W showed 76 µM (1 of 3 replicates).
Variant S31Y+S63I+F105R showed 7.1 µM (1 of 3 replicates).
Variant G33V+R56Y+F105L showed no signal (0 of 3 replicates).
Variant G26A+F105L showed 3.8 µM (3 of 3 replicates).
Variant Y60M+F105W showed 3.0 µM (2 of 3 replicates).
Variant G99P+F105R+S107I showed 750 nM (1 of 3 replicates).
Variant L29W+V64Y+F105G showed no signal (0 of 3 replicates).
Variant F59Y+F105C showed 6.9 nM (3 of 3 replicates).
Variant R56G+F105G showed 36 µM (1 of 3 replicates).
Variant G99F+A102T+F105W showed no signal (0 of 3 replicates).